Where two headings read alike, the source gives them in different places.

By UniProt entry, the sequences of proteins in these tests, tags left out. Residues count along the entry.
UniProt P51531, 1378-1506: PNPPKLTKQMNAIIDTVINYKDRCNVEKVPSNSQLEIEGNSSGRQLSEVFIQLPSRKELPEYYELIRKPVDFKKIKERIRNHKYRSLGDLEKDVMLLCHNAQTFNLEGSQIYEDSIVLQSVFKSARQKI
UniProt P51532, 1453-1564: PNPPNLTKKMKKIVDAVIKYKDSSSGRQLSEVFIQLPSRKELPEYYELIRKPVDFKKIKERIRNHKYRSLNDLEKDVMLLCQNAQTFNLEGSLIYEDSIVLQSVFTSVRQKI
UniProt Q86U86, 177-287: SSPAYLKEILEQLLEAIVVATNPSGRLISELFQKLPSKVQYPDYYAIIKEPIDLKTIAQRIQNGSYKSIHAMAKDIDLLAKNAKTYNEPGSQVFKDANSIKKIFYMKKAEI

Format in all cases: binding
The target of experiment [1] is T1, SMARCA2 (Homo sapiens (Human), UniProt P51531). The experiment can be described thus: DSF selectivity profiling.
Experiment [2] addresses SMARCA4 (Homo sapiens (Human), UniProt P51532). Kind of experiment: Isothermal titration calorimetry (ITC). In general terms: ITC needs no label: the signal is the heat of the interaction.
Experiment [3] concerns the target T1, SMARCA2. The experiment can be described thus: Isothermal titration calorimetry (ITC).
Experiment [4] addresses PBRM1-BD2 (Homo sapiens (Human), UniProt Q86U86).

Regarding `CCC(/C=C1\CCn2c1nc(=O)c1c(Cl)cccc12)CC` [Compound 7, (E)-6-Chloro-3-(2-ethylbutylidene)-2,3-dihydropyrrolo[1,2-a]quinazolin-5(1H)-one, reference compound], the “SMARCA2 ΔTm” value in experiment [1] was over 3 °C. The Kd in experiment [2] stood at 5.03 µM.

Turning to `O=C1NC(c2c(F)cccc2Cl)Nc2cccc(Cl)c21` (stereo not drawn) [Compound 11, 5-Chloro-2-(2-chloro-6-fluorophenyl)-2,3-dihydroquinazolin-4(1H)-one], the dissociation constant (Kd) in experiment [3] turned out to be 18.4 ± 9.9 µM.

For the compound `CC1CC(=O)NN=C1c1cccs1` (stereo not drawn) [Compound 6g], the “LE (Ligand Efficiency)” value in experiment [4] is recorded as 0.3. The Kd in experiment [4] (NMR titration, chemical shift perturbations vs fragment concentration) was 1210 ± 267 µM.

For `O=C1NC(c2c(F)cccc2Cl)Nc2ccccc21` (stereo not drawn) [Compound 5, 2-(2-Chloro-6-fluorophenyl)-2,3-dihydroquinazolin-4(1H)-one], the Kd in experiment [3] (ITC, NB = did not bind) was determined as 15.9 ± 9.73 µM.

Usually Kd stands for the concentration at which binding is half-saturated.

For the origin of these results see patent US20240190828A1, “Small Molecule Inhibitors of PBRM1-BD2” (The Medical College of Wisconsin, Inc., priority 2021, published 2024).
